PMC11338008, “Development and validation of CYP26A1 inhibition assay for high-throughput screening” (Biotechnology journal, 2024)
Where two headings read alike, the source gives them in different places.

The chains behind the UniProt entries cited, without tags or fusion partners. Where a name states a change or a piece, a line headed by the entry shows the natural chain unless it says otherwise.
UniProt O43174: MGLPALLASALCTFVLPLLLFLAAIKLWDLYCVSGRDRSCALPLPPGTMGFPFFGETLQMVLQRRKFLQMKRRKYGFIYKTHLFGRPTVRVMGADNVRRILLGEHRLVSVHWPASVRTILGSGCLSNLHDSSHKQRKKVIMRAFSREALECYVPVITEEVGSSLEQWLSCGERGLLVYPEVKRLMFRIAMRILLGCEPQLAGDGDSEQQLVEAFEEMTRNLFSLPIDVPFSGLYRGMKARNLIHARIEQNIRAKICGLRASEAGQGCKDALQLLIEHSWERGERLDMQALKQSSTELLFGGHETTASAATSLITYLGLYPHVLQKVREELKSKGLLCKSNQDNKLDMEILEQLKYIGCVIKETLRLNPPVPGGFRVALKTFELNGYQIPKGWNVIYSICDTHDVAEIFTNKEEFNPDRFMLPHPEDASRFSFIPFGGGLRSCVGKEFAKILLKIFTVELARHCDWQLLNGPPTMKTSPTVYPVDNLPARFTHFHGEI

Target: recombinant wild-type human CYP26A1 enzyme (Homo sapiens, UniProt O43174)
Experiment: P450-Glo CYP26A1 inhibition assay (luciferin-BE substrate, 1536-well)
Conditions: for Maximum response: normalized to positive control atRA (−100%) and DMSO (0%)
[1] = mean ± SD from three experiments, 2 μM luciferin-BE, active = maximum response greater than 40%
[2] = mean ± SD from three experiments

| Structure (SMILES) | CYP26A1 inhibition, result in words | IC50 [1] | Maximum response [2] | IC50 (read-out: IC50 (Figure 4 concentration-response curves), values printed in Figure 4 legend, three experiments) |
| --- | --- | --- | --- | --- |
| CC(C)OP(=S)(OC(C)C)SCCNS(=O)(=O)c1ccccc1 | novel CYP26A1 inhibitors | 39.3 µM | −93.3 ± 1.7% | 32.5 µM |
| O=C1C2CC=CCC2C(=O)N1SC(Cl)(Cl)C(Cl)Cl (stereo not drawn) | – | 4.6 µM | −108.27 ± 3.6% | – |
